From patent US4379165A, “Anti-convulsant” (priority 1981, dated 1983)

Experiments:
[1] = test system: subcutaneous picrotoxin seizure threshold; details: mice; intraperitoneal
[2] = test system: maximal electroshock seizures; test: maximal electroshock seizure (MES) pattern test, rats; details: rats (Table 7; title of Table 5 prints Mice); oral
[3] = test system: subcutaneous bicuculline seizure threshold; test: subcutaneous Bicuculline Seizure Threshold Test (sc Bic); details: mice; intraperitoneal
[4] = test system: subcutaneous metrazol seizure threshold; test: subcutaneous Metrazol Seizure Threshold Test (sc Met), mice

O=C1NC(=O)C(c2ccccc2)(c2ccccc2)N1 [Phenytoin]
PI (TD50/ED50) Picrotoxin [1]: < 0.65 | PI (TD50/ED50) MES [2]: > 100 | PI (TD50/ED50) Bicuculline [3]: < 0.65 | PI (TD50/ED50) sc Met ([4]; intraperitoneal): < 0.22 | PI (TD50/ED50) sc Met ([4]; oral): < 0.29
